Results from ChEMBL document CHEMBL1149394, “Guiding farnesyltransferase inhibitors from an ECLiPS library to the catalytic zinc” (Bioorg Med Chem Lett, 2006).

Biological target: Protein farnesyltransferase (Homo sapiens, UniProt P49354+P49356)
Experiment: Inhibitory activity against farnesyltransferase quantified by SPA assay
Assay type: protein-complex assay

SMILES: CCCCC(=O)N1CCN(C2c3ccc(Cl)cc3CCc3cc(Br)cnc32)CC1C(=O)NCCc1c[nH]cn1 (stereo unspecified)
- IC50: 12 nM
